Binding of CDR-mutated scFvs to a peptide of the spike HR2 region

The target is the same throughout: PDVDLGDISGINAS, from the HR2 region of SARS-CoV-2 spike.

Each scFv is VH, a (GGGGS)3 linker, VL, as in the parent Ab-14, and differs from it in the CDRs of the heavy chain only.
VH: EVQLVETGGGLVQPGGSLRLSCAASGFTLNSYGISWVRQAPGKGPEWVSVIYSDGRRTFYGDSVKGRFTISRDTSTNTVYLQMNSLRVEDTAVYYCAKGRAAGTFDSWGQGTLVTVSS
VL: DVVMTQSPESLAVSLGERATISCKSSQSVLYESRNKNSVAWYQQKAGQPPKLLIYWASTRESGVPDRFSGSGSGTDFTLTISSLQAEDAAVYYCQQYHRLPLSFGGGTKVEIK

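Phage display of a naive human antibody library on the peptide gave the parent. Designed CDR sequences, proposed from the first random library and measured here. Group labels follow the data file (Ctrl: baseline library sampled from a position-specific scoring matrix, with some repeated check sequences; GP: Gaussian process model; GPLM: also part of the Gaussian process libraries; HC: hill climbing; Gen: genetic algorithm; a sequence that several methods proposed may carry one label only). The assay is AlphaSeq: two haploid yeast populations carry antibody and antigen on their surface. Binding brings cells together so that they mate, and sequencing counts the barcode pairs among the diploids. The ratio of observed to expected reads was calibrated, replicate by replicate, on BCL2-family standards whose Kd was known from biolayer interferometry. The assay was run in six technical replicates.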

Positions count from residue 1 of the parent VH; S31Q puts Q in place of S.
Numbers give log10(Kd / nM), so 0 is 1 nM and 3 is 1 µM. Smaller is tighter.
"n.d." means that the variant was in the library but no mating with the target was seen in that replicate; the authors take this as a sign of poor binding, and no number exists.
The range of this assay differs from that of the first round, and the authors advise against merging the two.
A sequence that the file lists under several names has all its replicates listed entry by entry, parted by semicolons.
The authors averaged sequences with at least three values out of six and counted those with two or fewer as poor binders.
Of ten entries with the parent sequence, four were seen in most replicates (averages 0.34 to 2.37), three in one and three in none, so single entries are noisy.
As a blank, each scFv also met three strains without target: over all heavy chain designs, 1% of these pairings were detected, typically at 2.08 and seldom below 0.84. Also given: how often the same scFv was detected with the empty control strains, with their mean in brackets.

| # | changes | group | log10 Kd (nM) by replicate | control signals |
|---|---|---|---|---|
| 1 | S31Q+G99H+R100E | Ctrl | n.d. n.d. n.d. n.d. n.d. 1.50 | 0/18 |
| 2 | S63Q+R100S+A101E+T104A | Ctrl | n.d. n.d. n.d. n.d. n.d. n.d. | 0/18 |
| 3 | T28Q+K65R+R100A | Ctrl | n.d. n.d. n.d. n.d. 0.87 n.d. | 0/18 |
| 4 | S31E+G61I | Ctrl+GPLM_Gen | 1.12 0.26 0.05 0.62 0.91 0.62; 0.66 0.58 0.75 0.30 0.53 0.95 | 0/36 |
| 5 | G61H+R100Q | Ctrl | 1.24 n.d. 2.75 1.54 1.22 2.13 | 0/18 |
| 6 | F105N | Ctrl | n.d. n.d. n.d. n.d. n.d. n.d. | 0/18 |
| 7 | F59E+G61A | Ctrl | n.d. -0.06 n.d. n.d. n.d. n.d. | 0/18 |
| 8 | F27N+T58Q | Ctrl | n.d. n.d. n.d. n.d. n.d. n.d. | 0/18 |
| 9 | N30G+G33S+G61N | Ctrl | 2.02 n.d. n.d. n.d. n.d. n.d. | 1/18 (1.83) |
| 10 | N30L+G61L+S107D | Ctrl | n.d. n.d. n.d. n.d. n.d. n.d. | 0/18 |
| 11 | G26Q+T28A | Ctrl | n.d. 1.85 1.62 n.d. 2.16 n.d. | 0/18 |
| 12 | F27L+N30T | Ctrl | n.d. n.d. n.d. n.d. -1.37 n.d. | 0/18 |
| 13 | F59H+G103L+S107T | Ctrl | n.d. n.d. n.d. n.d. n.d. n.d. | 0/18 |
| 14 | F27E+T28N+N30S+S63N | Ctrl | n.d. n.d. n.d. n.d. n.d. 2.19 | 1/18 (2.41) |
| 15 | T28N+R100P+S107W | Ctrl | n.d. n.d. n.d. n.d. n.d. n.d. | 0/18 |
| 16 | L29P+I34V+A101E+A102M | Ctrl | n.d. n.d. n.d. n.d. n.d. n.d. | 0/18 |
| 17 | S31E+S53P+G61T | Ctrl | 1.98 1.69 1.43 1.51 1.31 1.54 | 0/18 |
| 18 | S53A+D106E | Ctrl+GPLM_Gen | 1.12 0.75 2.45 1.30 1.80 n.d.; 1.11 1.33 0.92 1.04 1.14 1.10 | 0/36 |
| 19 | S35T+G61H+K65A+R100Q+S107T | Ctrl | n.d. n.d. n.d. n.d. n.d. n.d. | 1/18 (0.87) |
| 20 | N30R+A102P | Ctrl | n.d. 2.30 n.d. n.d. n.d. n.d. | 0/18 |
| 21 | L29R+R100Q+F105M | Ctrl | n.d. n.d. n.d. n.d. n.d. n.d. | 0/18 |
| 22 | I34V+D106S+S107E | Ctrl | n.d. n.d. 1.48 n.d. 1.34 2.57 | 0/18 |
| 23 | T28A+Y60V+S107L | Ctrl | n.d. n.d. n.d. n.d. n.d. n.d. | 1/18 (1.10) |
| 24 | R57K+A101T+S107L | Ctrl | n.d. n.d. n.d. n.d. 1.50 n.d. | 0/18 |
| 25 | S31E+R56K+F59Q+G61N | Ctrl | n.d. 1.45 1.45 2.60 n.d. 2.36 | 0/18 |
| 26 | F59M+A101L+T104N | Ctrl | n.d. n.d. 2.34 n.d. n.d. n.d. | 1/18 (1.47) |
| 27 | N30I+R100Q+D106R | Ctrl | n.d. n.d. n.d. n.d. n.d. n.d. | 0/18 |
| 28 | T28P+K65C+A102H | Ctrl | n.d. 1.71 n.d. n.d. n.d. n.d. | 0/18 |
| 29 | I51D+F59M+R100T | Ctrl | n.d. n.d. n.d. n.d. n.d. n.d. | 0/18 |
| 30 | L29I+S31N+S63A+A101N+A102D+G103A+D106E | Ctrl | n.d. n.d. n.d. n.d. n.d. n.d. | 0/18 |
| 31 | G61Q+V64F | Ctrl | n.d. n.d. n.d. n.d. n.d. n.d. | 0/18 |
| 32 | T28N+N30G+F59A+S63N+S107T | Ctrl | 1.34 1.51 0.60 1.17 1.66 1.04 | 1/18 (1.59) |
| 33 | G99R+R100M+A102K+S107Y | Ctrl | n.d. n.d. n.d. n.d. n.d. n.d. | 0/18 |
| 34 | R56H+G61V+A101N+A102K+G103L+S107L | Ctrl | n.d. n.d. n.d. n.d. n.d. n.d. | 0/18 |
| 35 | N30M+F59M+S63D+A101N+D106S | Ctrl | n.d. n.d. n.d. 2.32 n.d. 3.73 | 0/18 |
| 36 | T28H+L29V+G61A+A101V | Ctrl | n.d. 1.04 1.42 0.55 0.71 0.94 | 0/18 |
| 37 | R56L+S107D | Ctrl | 1.39 n.d. n.d. n.d. n.d. 1.81 | 0/18 |
| 38 | T28E | Ctrl+GP_HC | 1.04 1.03 1.61 1.08 1.21 1.29; 1.45 0.47 -0.03 -0.46 -0.24 1.25 | 0/36 |
| 39 | S53A+R56M+G99T+A102P | Ctrl | n.d. n.d. n.d. n.d. n.d. n.d. | 0/18 |
| 40 | S31E+F59A+G61R+G99I | Ctrl | n.d. n.d. n.d. n.d. n.d. n.d. | 0/18 |
| 41 | S31E+S107E | Ctrl+GP_HC | 0.74 0.57 0.32 0.55 0.47 0.49; n.d. 1.44 n.d. 0.53 1.22 0.78 | 1/36 (1.95) |
| 42 | R100D+A102V+S107L | Ctrl | n.d. n.d. n.d. n.d. 2.09 n.d. | 1/18 (2.24) |
| 43 | T28M+D106S | Ctrl | n.d. n.d. n.d. n.d. n.d. n.d. | 0/18 |
| 44 | T28P+L29V+G33S+G61A+T104D | Ctrl | n.d. n.d. n.d. n.d. n.d. n.d. | 1/18 (1.72) |
| 45 | S31D+S35H+G61Q+R100A+S107Q | Ctrl | n.d. n.d. n.d. n.d. n.d. n.d. | 0/18 |
| 46 | F59W+A101E+G103W+S107Q | Ctrl | 0.36 0.38 1.91 0.23 0.14 0.81 | 0/18 |
| 47 | R56K+A102K | Ctrl | n.d. 3.10 1.65 2.10 1.94 n.d. | 0/18 |
| 48 | T28H+K65A+A101V+T104Y | Ctrl | n.d. n.d. n.d. n.d. n.d. n.d. | 0/18 |
| 49 | F27N+T28S+G61K+R100Q+S107M | Ctrl | 1.70 1.24 n.d. 2.46 n.d. n.d. | 0/18 |
| 50 | S63N+A101M+G103S+T104A | Ctrl | n.d. n.d. n.d. n.d. n.d. n.d. | 0/18 |
| 51 | F27N+T28N | Ctrl | n.d. n.d. n.d. n.d. n.d. 2.85 | 0/18 |

The first 5 entries again:

| changes | group | log10 Kd (nM) by replicate | control signals |
|---|---|---|---|
| S31Q+G99H+R100E | Ctrl | n.d. n.d. n.d. n.d. n.d. 1.50 | 0/18 |
| S63Q+R100S+A101E+T104A | Ctrl | n.d. n.d. n.d. n.d. n.d. n.d. | 0/18 |
| T28Q+K65R+R100A | Ctrl | n.d. n.d. n.d. n.d. 0.87 n.d. | 0/18 |
| S31E+G61I | Ctrl+GPLM_Gen | 1.12 0.26 0.05 0.62 0.91 0.62; 0.66 0.58 0.75 0.30 0.53 0.95 | 0/36 |
| G61H+R100Q | Ctrl | 1.24 n.d. 2.75 1.54 1.22 2.13 | 0/18 |

Values reported by Li et al. 2023, doi:10.1038/s41467-023-39022-2 (FLAb copy).